Here are results for 2 molecules from ChEMBL document CHEMBL5338787, “Discovery of Novel Bruton's Tyrosine Kinase PROTACs with Enhanced Selectivity and Cellular Efficacy” (J Med Chem, 2023).

Chains of the proteins cited; added tags and fusions are not shown. Lines headed by an entry give the natural chain unless they say otherwise; changes in a name come on top.
UniProt Q06187: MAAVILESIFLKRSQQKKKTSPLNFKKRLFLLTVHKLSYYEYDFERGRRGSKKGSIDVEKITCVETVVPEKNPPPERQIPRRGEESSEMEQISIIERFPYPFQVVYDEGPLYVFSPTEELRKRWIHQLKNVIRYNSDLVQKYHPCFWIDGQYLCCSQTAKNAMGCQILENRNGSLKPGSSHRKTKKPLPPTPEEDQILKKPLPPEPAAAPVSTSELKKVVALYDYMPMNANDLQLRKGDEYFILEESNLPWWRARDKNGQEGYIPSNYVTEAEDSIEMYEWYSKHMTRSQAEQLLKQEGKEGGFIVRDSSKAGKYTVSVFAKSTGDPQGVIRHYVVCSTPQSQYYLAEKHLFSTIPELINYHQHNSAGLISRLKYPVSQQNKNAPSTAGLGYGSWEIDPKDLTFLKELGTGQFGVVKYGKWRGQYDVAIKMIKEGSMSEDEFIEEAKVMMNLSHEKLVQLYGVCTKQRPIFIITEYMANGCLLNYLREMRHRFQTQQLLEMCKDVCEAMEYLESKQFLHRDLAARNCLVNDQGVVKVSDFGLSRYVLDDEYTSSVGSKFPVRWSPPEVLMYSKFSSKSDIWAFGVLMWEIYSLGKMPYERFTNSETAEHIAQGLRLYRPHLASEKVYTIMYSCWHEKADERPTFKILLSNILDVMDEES

SMILES strings stand for the structures. pIC50: −log10 of the molar value.

Assay [1] concerns the target Tyrosine-protein kinase BTK (Homo sapiens, UniProt Q06187). Put plainly: Potency index, ratio of test compound Kd to GDC-0853 Kd for full length BTK (unknown origin). Summed up: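 TR-FRET binding used 0.05 nM purified full-length unactivated BTK, 10 nM Alexa Fluor647 kinase tracer and 2 nM Tb antibody. […] The index is the ratio to the reference inhibitor's Kd.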

A short description of assay [2]: Cytotoxicity against human MINO cells incubated for 48 hrs by celltitre glo 2.0 assay. The format is functional, cell-based. Summed up: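 Mino cells seeded at 10,000/well, treated across 3,000–0.15 nM (3-fold series) against 1% DMSO vehicle. CellTiter-Glo 2.0 luminescence viability read-out. IC50 from four-parameter curve fitting, mean ± SD, triplicates of three independent experiments.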

Turning to `C[C@H]1CN(C(=O)CNc2cccc3c2C(=O)N(C2CCC(=O)NC2=O)C3=O)CCN1c1ccc(Nc2cc(-c3ccnc(N4CCn5c(cc6c5CC(C)(C)C6)C4=O)c3CO)cn(C)c2=O)nc1` (some centres not stated), in assay [1], the Ratio amounted to 10.

With `Nc1cccc2c1C(=O)N(C1CCC(=O)NC1=O)C2=O` (configuration not stated) [POMALIDOMIDE], the pIC50 (commonly the negative decadic logarithm of the IC50, by convention in mol/L) in assay [2] was 7.68.
